Many of the other results were omitted from the sample, so hits are more common in it than they were.
HCMV NEC inh – cytomegalovirus nuclear egress complex inhibition; HTRF UL50-UL53 interaction, normalized percent inhibition; inhibition, % (concentration not given with the values); 190,000 tested, 0.15% active; in the data active = inhibition above about 27%, passing the limit was not always enough
GIV-Gai inh – inhibitors of GIV GBA-motif binding to rat Galpha-i3; P08753; Galpha-i3/FITC-GIV peptide fluorescence polarization, 90 min; stronger effect = lower value; scaled: aluminum fluoride 0%, vehicle 100%; percent of control (FP), % (test concentration not listed); 210,000 tested, 0.42% active; AID 1224905;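 active = replicate mean at 85% of control or lower, very high polarization wells dropped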;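 note: wells of about 15 µL received 100 nL stock; the first replicate is given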
GIV-Gai FP conf – GIV-Galpha-i3 inhibition, FP confirmation | 580 tested, 38% active | fluorescence polarization, mP at 100 µM | FITC-GIV peptide binding to Galphai3, fluorescence polarization; active compounds read low | shares compounds with GIV-Gai inh;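 active = inhibition score of 15 or more, meaning 100 minus mean polarization as percent of control over three replicates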;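 also: lower mP means peptide displaced from Galphai3 so more inhibition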
GIV Gai AS conf – confirmation of inhibitors of GIV binding to human Galpha-i3. shares compounds with GIV-Gai inh. AID 1259351. AlphaScreen counts at 100 µM. 580 tested, 39% active. AlphaScreen Galphai3-GIV binding, purified proteins, 90 min; active compounds read low;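 active = inhibition score at or above a set limit, where the score is 100 minus the three-replicate mean percent of control signal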
* marks the source's active call; other numbers are inactive results; nt = not tested or not shown.

compound	HCMV NEC inh	GIV-Gai inh	GIV-Gai FP conf	GIV Gai AS conf
Cc1nc(-c2cccc(S(=O)(=O)Nc3ccc(S(N)(=O)=O)cc3)c2)no1	nt	104	nt	nt
CN1C(=O)N(C)C2(c3ccccc3)Nn3c(s/c(=C/c4ccccc4Br)c3=O)=NC12c1ccccc1 (stereo not drawn)	nt	102	nt	nt
CC1(C)CN(C(=O)C2CC2)c2ccc(S(=O)(=O)N3CCN(c4ccccn4)CC3)cc21	nt	107	nt	nt
O=C(CSc1nnc2c3sc(N4CCCC4)nc3ncn12)Nc1ccc2c(c1)OCO2	nt	30*	83	27926
O=C(CSc1nnc2c3sc(N4CCCC4)nc3ncn12)Nc1ccc(F)c(F)c1	nt	110	nt	nt
Cn1[nH]c(CSc2ccccc2)cc1=O	-18	98	nt	nt
Cn1c(=O)cc2c3c(c(Nc4ccccc4)ccc31)C(=O)c1ccccc1-2	nt	101	nt	nt
CC(=O)Nc1ccc2c3c(cc(=O)n2C)-c2ccccc2C(=O)c13	nt	85*	69	46281
CCOC(=O)c1cc(-c2ccc(OC)c(S(=O)(=O)N(C)Cc3ccccc3)c2)on1	-27	102	nt	nt
Nc1nc(SC(C(=O)c2c[nH]c3ccccc23)c2ccccc2)n[nH]1 (stereo not drawn)	8	nt	nt	nt
Cc1[nH]nc2oc(=O)c(CC(=O)O)c(C)c12	65	84*	59*	27884
Cc1[nH]nc2oc(=O)c(Cc3c(F)cccc3Cl)c(C)c12	-8	100	nt	nt
O=C(O)c1cccc(NC(=O)c2cccc(S(=O)(=O)Nc3cccc(C(=O)O)c3)c2)c1	nt	95	nt	nt
O=C(Nc1cccc(C(=O)Nc2ccc(S(=O)(=O)O)c3cc(S(=O)(=O)O)cc(S(=O)(=O)O)c23)c1)Nc1cccc(C(=O)Nc2ccc(S(=O)(=O)O)c3cc(S(=O)(=O)O)cc(S(=O)(=O)O)c23)c1	-42	0.1*	33*	3059*
COc1ccc(-c2cc3c(=O)n(CC(=O)Nc4cccc(OC)c4)ncn3n2)cc1	-16	100	nt	nt
O=C1NC(=O)c2cccc3cccc1c23	-92	105	nt	nt
O=C1C=C(O)c2cccc3cccc1c23	-115	83*	59	15097*
Cc1nc(N2CCN(C)CC2)c2c(C)c(C(=O)Nc3cccc(Cl)c3)sc2n1	nt	94	65	54788
COc1ccc(Cl)cc1NC(=O)c1sc2nc(C)nc(N3CCN(C)CC3)c2c1C	nt	97	nt	nt
COc1ccc2c(=S)c(-c3csc(C)n3)c(C)oc2c1	-54	nt	nt	nt
CCOc1ccc2oc(-c3ccccc3)c(C(=O)Nc3cc(OC)c(OC)cc3C(=O)OC)c2c1	-4	102	nt	nt
Cc1oc2ccccc2c1CC(=O)Nc1ccc(C(F)(F)F)cc1	-4	108	nt	nt
COC(=O)c1ccsc1NC(=O)c1cccc(C)c1	-26	65*	69	35067
COC(=O)c1ccsc1NC(=O)c1cccc(S(C)(=O)=O)c1	-33	106	nt	nt
CC1(C)CC(=O)c2cc3c(N)c(C(=O)c4ccc([N+](=O)[O-])cc4)sc3nc2C1	nt	104	nt	nt
COc1ccccc1C(=O)Nc1ccccc1SCc1cc(=O)c2ccccc2[nH]1	nt	53*	53*	30214
COc1ccc(C(=O)Nc2ccccc2SCc2cc(=O)c3cccc(C)c3[nH]2)cc1	nt	106	nt	nt
COc1ccc(C2=NN(CN3C(=O)C(=O)c4cc(Br)ccc43)C(c3ccccc3)C2)cc1 (stereo not drawn)	-10	104	nt	nt
CCN(CCN(C)C)c1ncc(NS(=O)(=O)CC)cc1C(=O)O	-24	71*	34*	21018*
CCCCN(CC)c1ncc(NS(=O)(=O)CC)cc1C(=O)O	-39	110	nt	nt

Reprinted at random: six records from the list
compound	HCMV NEC inh	GIV-Gai inh	GIV-Gai FP conf	GIV Gai AS conf
Nc1nc(SC(C(=O)c2c[nH]c3ccccc23)c2ccccc2)n[nH]1 (stereo not drawn)	8	nt	nt	nt
CN1C(=O)N(C)C2(c3ccccc3)Nn3c(s/c(=C/c4ccccc4Br)c3=O)=NC12c1ccccc1 (stereo not drawn)	nt	102	nt	nt
CCOc1ccc2oc(-c3ccccc3)c(C(=O)Nc3cc(OC)c(OC)cc3C(=O)OC)c2c1	-4	102	nt	nt
O=C(CSc1nnc2c3sc(N4CCCC4)nc3ncn12)Nc1ccc(F)c(F)c1	nt	110	nt	nt
COc1ccccc1C(=O)Nc1ccccc1SCc1cc(=O)c2ccccc2[nH]1	nt	53*	53*	30214
COc1ccc2c(=S)c(-c3csc(C)n3)c(C)oc2c1	-54	nt	nt	nt

Later entries:
compound	HCMV NEC inh	GIV-Gai inh	GIV-Gai FP conf	GIV Gai AS conf
CC(=O)c1c2c3c(c(Br)ccc3n(C)c1=O)C(=O)c1ccccc1-2	nt	111	nt	nt
Cn1c(=O)c(C(=O)CS(=O)(=O)O)c2c3c(c(Br)ccc31)C(=O)c1ccccc1-2	nt	84*	62	5202*
CCCNC(=O)Nc1cccc(-c2noc(/C=C/c3ccc(C)cc3)n2)c1	-19	105	nt	nt
COc1ccc(-n2ccc(=O)c(-c3nc(-c4ccccc4OC)no3)n2)cc1	nt	102	nt	nt
O=S1(=O)N=C(Nc2ccccc2)c2ccccc21	-22	nt	nt	nt
N#Cc1ccc(NC2=NS(=O)(=O)c3ccccc32)cc1	-2	92	77	35009
COc1ccccc1C=Nc1c(C)n(C)n(-c2ccccc2)c1=O	nt	112	nt	nt
CC(=O)Oc1cc(OC(C)=O)cc(OC(C)=O)c1	-5	nt	nt	nt
CCN(CC)c1ccc2cc(S(=O)(=O)c3ccc(F)c(Cl)c3)c(=O)oc2c1	-1	56*	71	47488
CCN(CC)c1ccc2ccc(=O)oc2c1	-93	137	nt	nt
COc1ccc(NC(=O)c2c(-c3ccccc3Cl)noc2C)cc1-n1cnnn1	-27	104	nt	nt
O=C(c1cccc(Cl)c1)N1CCN(Cc2noc(-c3ccccc3)n2)CC1	nt	102	nt	nt
S=C(Nc1ccc2nsnc2c1)N1CCCC1	nt	81*	23*	11675*
COc1cccc(NC(=O)c2ccc3nsnc3c2)c1	-128	101	nt	nt
CCN(CC)C(=S)Nc1ccc2nsnc2c1	nt	66*	27*	10807*
Fc1ccc(NC(=S)N2CCCCC2)cc1	-3	102	nt	nt
Cc1ccc(C#N)o1	0	nt	nt	nt
CC(C)NC(=O)C1CCCN(S(=O)(=O)c2cn(C(C)C)cn2)C1 (stereo not drawn)	-19	107	nt	nt
CC(=O)O/N=C1\Sc2ccccc2C1=O	19	68*	66	29965*
COc1ccc(N(/N=C2\Sc3ccccc3C2=O)C(C)=O)cc1	-3	110	nt	nt
CCOc1ccc(NC(=O)c2ccc3[nH]c(C)cc(=O)c3c2)cc1	-7	98	nt	nt
Cc1ccc(NC(=O)c2ccc3[nH]c(C)cc(=O)c3c2)cc1	-1	86	80	29554
COc1ccc(-c2c/c(=N\O)c3cc(F)ccc3o2)cc1	-20	nt	nt	nt
COc1ccc(-c2cc(=Nc3ccc(C)cc3C)c3cc(O)ccc3o2)cc1	nt	75*	64	35576
O=c1c2ccccc2c2nc3c(=O)c4ccccc4c3nc12	-36	103	nt	nt
O=c1c(=NO)c(=O)c2ccccc12	62	55*	47*	13907*
NS(=O)(=O)c1ccc(NC(=O)CCC(=O)c2ccc(F)cc2)cc1	-9	nt	nt	nt
CCC1C/C(=C\c2ccc(Br)cc2)C(=O)/C(=C/c2ccc(Br)cc2)C1 (stereo not drawn)	nt	99	nt	nt
CCC1C/C(=C\c2ccc(OCC(N)=O)cc2)C(=O)/C(=C/c2ccc(OCC(N)=O)cc2)C1 (stereo not drawn)	nt	89	75	15830*
O=C(Oc1cccc(Br)c1)c1cccnc1Cl	-28	nt	nt	nt
CCN(CC)c1ccc(N)c(C)c1	-64	41*	74	1482*
CCN(CC)c1ccc(NC(C)=O)c(C)c1	-13	102	nt	nt
NC(=O)c1ccccc1NC(=O)C1SC(=Nc2cccc(Cl)c2)C(C(=O)NCc2ccco2)=C1N (stereo not drawn)	-14	nt	nt	nt
CN1C(C(=O)c2ccccc2)=C(NC(=O)c2ccccc2)c2ccccc2S1(=O)=O	-5	67*	66	42284
CCN1C(C(=O)c2ccccc2)=C(NC(=O)c2ccc(Cl)cc2)c2ccccc2S1(=O)=O	-2	104	nt	nt
COc1ccc(C(=O)NCC(c2ccccc2)c2c[nH]c3ccccc23)cc1 (stereo not drawn)	-25	103	nt	nt
O=C(O)c1ccccc1C(=O)c1ccccc1	2	nt	nt	nt

Screens: PubChem BioAssay, ICCB-Longwood Screening Facility, Harvard Medical School
